{"sequences": {"note": "Chains of the proteins cited; added tags and fusions are not shown.", "UniProt P61081, whole entry, looked up": "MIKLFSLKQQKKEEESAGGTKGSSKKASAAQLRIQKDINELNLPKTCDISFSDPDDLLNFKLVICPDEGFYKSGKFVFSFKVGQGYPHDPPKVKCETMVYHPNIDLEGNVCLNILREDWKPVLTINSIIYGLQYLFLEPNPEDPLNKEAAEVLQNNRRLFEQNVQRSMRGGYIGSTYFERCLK", "UniProt Q13564, whole entry, looked up": "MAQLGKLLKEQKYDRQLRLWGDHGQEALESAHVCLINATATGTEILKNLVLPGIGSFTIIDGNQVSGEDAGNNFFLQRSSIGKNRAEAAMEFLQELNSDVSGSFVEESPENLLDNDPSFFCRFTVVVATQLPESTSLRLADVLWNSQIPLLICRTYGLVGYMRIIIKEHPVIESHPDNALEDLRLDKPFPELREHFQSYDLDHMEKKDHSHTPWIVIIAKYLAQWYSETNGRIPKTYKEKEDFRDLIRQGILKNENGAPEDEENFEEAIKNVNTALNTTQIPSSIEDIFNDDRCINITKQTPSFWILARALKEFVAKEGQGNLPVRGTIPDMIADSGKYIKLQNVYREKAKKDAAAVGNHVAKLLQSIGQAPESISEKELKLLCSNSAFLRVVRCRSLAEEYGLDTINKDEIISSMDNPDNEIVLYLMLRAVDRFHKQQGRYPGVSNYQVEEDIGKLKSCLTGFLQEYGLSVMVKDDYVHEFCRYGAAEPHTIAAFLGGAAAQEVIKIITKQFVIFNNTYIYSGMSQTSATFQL"}, "source": "PubChem BioAssay AID651699", "about": "(Sanford-Burnham Center for Chemical Genomics, 2012)", "note": "This is a selection; strong and weak results do not stand in their true shares. Some salts and complexes are drawn in separate pieces, as the source files them; their charges need not balance. The source made the active and inactive calls. No stated cut-off is given here; in the data, active means inhibition above about 36%; inactive means the rest."}
{"biological_target": "NEDD8-conjugating enzyme Ubc12 (Homo sapiens) + NEDD8-activating enzyme E1 regulatory subunit (Homo sapiens) (UniProt P61081+Q13564)", "experiment": "inhibitors of cullin neddylation, primary screen, biochemical, TR-FRET, uHTS, NAE and Ubc12 (AID 651699)", "conditions": "at 25 µM, stronger effect = higher value"}
{"smiles": "Cc1cc(C)cc(OP(C)(=O)Nc2ccccn2)c1", "note": "(configuration not stated)", "inhibition": "inactive: 7.98%"}
{"smiles": "CP(=O)(Nc1cccc(Br)c1)Oc1ccccc1", "note": "(configuration not stated)", "inhibition": "inactive: 0.49%"}
{"smiles": "COc1ccccc1OP(C)(=O)Nc1cccc(Br)c1", "note": "(configuration not stated)", "inhibition": "inactive: -3.79%"}
{"smiles": "CCOC(=O)c1ccc(NP(C)(=O)Oc2cc(C)cc(C)c2)cc1", "note": "(configuration not stated)", "inhibition": "inactive: 4.94%"}
{"smiles": "Cc1cc(C)cc(OP(C)(=O)Nc2ccc(C)cc2C)c1", "note": "(configuration not stated)", "inhibition": "inactive: -1.55%"}
{"smiles": "CC1=NCCc2c1[nH]c1ccccc21.O=[N+]([O-])c1cc([N+](=O)[O-])c(O)c([N+](=O)[O-])c1", "inhibition": "inactive: 4.31%"}
{"smiles": "O=C(O)c1cccc(Nc2c([N+](=O)[O-])cc([N+](=O)[O-])cc2[N+](=O)[O-])c1", "inhibition": "inactive: -44.2%"}
{"smiles": "CN1CCCCC1COC(=O)C1(O)c2ccccc2CCc2ccccc21", "note": "(configuration not stated)", "inhibition": "inactive: -1.13%"}
{"smiles": "COc1ccccc1OP(C)(=O)Nc1c(C)cccc1C", "note": "(configuration not stated)", "inhibition": "inactive: 5.2%"}
{"smiles": "COc1ccc(-c2ccccn2)cc1.O=[N+]([O-])c1cc([N+](=O)[O-])c(O)c([N+](=O)[O-])c1", "inhibition": "active: 46.6%"}
{"smiles": "CCCOc1ccc(NP(C)(=O)Oc2ccc(Cl)cc2)cc1", "note": "(configuration not stated)", "inhibition": "inactive: -3.95%"}
{"smiles": "CP(=O)(Nc1ccc(SC(F)(F)F)cc1)Oc1ccccc1", "note": "(configuration not stated)", "inhibition": "inactive: 4.05%"}
{"smiles": "CCOC(=O)C(CC)C1=NC(C)(C)Cc2ccccc21.O=[N+]([O-])c1cc([N+](=O)[O-])c(O)c([N+](=O)[O-])c1", "note": "(configuration not stated)", "inhibition": "inactive: -20.5%"}
{"smiles": "CC1=C2N=C(C=C3N=C(C(C)=C4[N-][C@@](C)([C@@H]5N=C1[C@](C)(CCC(=O)NC[C@@H](C)OP(=O)([O-])O[C@H]1[C@@H](O)[C@@H](n6cnc7cc(C)c(C)cc76)O[C@@H]1CO)[C@H]5CC(N)=O)[C@@](C)(CC(N)=O)[C@@H]4CCC(N)=O)[C@@](C)(CC(N)=O)[C@@H]3CCC(N)=O)C(C)(C)[C@@H]2CCC(N)=O.[C-]#N.[Co+3]", "inhibition": "inactive: -25.4%"}
{"smiles": "O=[N+]([O-])c1cc([N+](=O)[O-])c(Nc2nnnn2CCO)c([N+](=O)[O-])c1", "inhibition": "inactive: -29.7%"}
{"smiles": "O=[N+]([O-])c1cc([N+](=O)[O-])c(-c2cnn(-c3ccccc3)c2)c([N+](=O)[O-])c1", "inhibition": "inactive: -44.3%"}
{"smiles": "Cc1nc2ccc3ccccc3c2s1.O=[N+]([O-])c1cc([N+](=O)[O-])c(O)c([N+](=O)[O-])c1", "inhibition": "inactive: -49.8%"}
{"smiles": "O=[N+]([O-])c1cc([N+](=O)[O-])c(-n2nnc3ccccc32)c([N+](=O)[O-])c1", "inhibition": "inactive: -25.8%"}
{"smiles": "CN(Cc1cccnc1)C(=O)COc1ccc(Cl)c(Cl)c1.O=[N+]([O-])c1cc([N+](=O)[O-])c(O)c([N+](=O)[O-])c1", "inhibition": "inactive: -61.5%"}
{"smiles": "CP(=O)(Nc1ccc2c(c1)OCCO2)Oc1ccccc1", "note": "(configuration not stated)", "inhibition": "inactive: -2.47%"}
{"smiles": "Cc1ccccc1NP(C)(=O)Nc1ccccc1C", "inhibition": "inactive: 4.95%"}
{"smiles": "O=[N+]([O-])c1cc([N+](=O)[O-])c(C(F)(F)F)c([N+](=O)[O-])c1O", "inhibition": "inactive: -25.7%"}
{"smiles": "CP(=O)(Nc1ccc(SC(F)(F)F)cc1)Oc1ccc(F)cc1", "note": "(configuration not stated)", "inhibition": "inactive: 1.1%"}
{"smiles": "CCOP(C)(=S)SCC(=O)NC(C)(CC)C(=O)O", "note": "(configuration not stated)", "inhibition": "inactive: -10.2%"}
{"smiles": "O=[N+]([O-])c1ccc(OP2(=O)COCCO2)cc1", "note": "(configuration not stated)", "inhibition": "inactive: -18.4%"}
{"smiles": "O=[N+]([O-])c1cc([N+](=O)[O-])c(NCC2CCS(=O)(=O)C2)c([N+](=O)[O-])c1", "note": "(configuration not stated)", "inhibition": "inactive: -38.3%"}
{"smiles": "Cc1cc(-c2cccc3ccccc23)c(C)cn1.O=[N+]([O-])c1cc([N+](=O)[O-])c(O)c([N+](=O)[O-])c1", "inhibition": "inactive: -14.3%"}
{"smiles": "Cc1c(C(c2ccc3c(c2)OCO3)c2c(C)n(C)n(-c3ccccc3)c2=O)c(=O)n(-c2ccccc2)n1C.O=[N+]([O-])c1cc([N+](=O)[O-])c(O)c([N+](=O)[O-])c1", "inhibition": "inactive: -5.7%"}
{"smiles": "COc1ccc(OP(C)(=O)Nc2cccc(Br)c2)cc1", "note": "(configuration not stated)", "inhibition": "inactive: 14%"}
{"smiles": "CN(C)CCOC(=O)C(O)(c1ccccc1)C1CCCCC1", "note": "(configuration not stated)", "inhibition": "inactive: 1.11%"}
{"smiles": "COc1ccc(NP(C)(=O)Oc2ccccc2OC)cc1", "note": "(configuration not stated)", "inhibition": "inactive: -5.48%"}
{"smiles": "Cc1c([N+](=O)[O-])cc([N+](=O)[O-])c(Br)c1[N+](=O)[O-]", "inhibition": "inactive: -35.9%"}
{"smiles": "CCN(CC)CCCOC(=O)C(O)(c1ccccc1)C1CCCCC1", "note": "(configuration not stated)", "inhibition": "inactive: 4.22%"}
{"smiles": "CP(=O)(Nc1ccccc1)Oc1ccc(F)cc1", "note": "(configuration not stated)", "inhibition": "inactive: -10.4%"}
{"smiles": "O=[N+]([O-])c1cc([N+](=O)[O-])c(OC2CCCCC2O)c([N+](=O)[O-])c1", "note": "(configuration not stated)", "inhibition": "inactive: -33.9%"}
{"smiles": "CCCCCOc1ccc(NP(C)(=O)Oc2ccc(Cl)cc2Cl)cc1", "note": "(configuration not stated)", "inhibition": "inactive: 4.67%"}
{"smiles": "CCN(CC)CCCNc1ccccc1[N+](=O)[O-].O=[N+]([O-])c1cc([N+](=O)[O-])c(O)c([N+](=O)[O-])c1", "inhibition": "inactive: -42.4%"}
{"smiles": "CCOC(=O)c1ccc(NP(C)(=O)Oc2ccc(F)cc2)cc1", "note": "(configuration not stated)", "inhibition": "inactive: -2.76%"}
{"smiles": "COc1ccc(OP(C)(=O)Nc2ccc(SC(F)(F)F)cc2)cc1", "note": "(configuration not stated)", "inhibition": "inactive: 4.14%"}
{"smiles": "O=C(OC1CN2CCC1CC2)c1ccc([N+](=O)[O-])cc1", "note": "(configuration not stated)", "inhibition": "inactive: -42.9%"}
{"smiles": "O=C(OCCN1CCN(CCOCc2ccccc2)CC1)C(O)(c1ccccc1)c1ccccc1", "inhibition": "inactive: 1.06%"}
{"smiles": "COc1ccc2c(c1O)-c1c(O)c(OC)cc3c1[C@H](C2)[N+](C)(C)CC3.O=[N+]([O-])c1cc([N+](=O)[O-])c([O-])c([N+](=O)[O-])c1[O-]", "inhibition": "inactive: 66.9%"}
{"smiles": "O=[N+]([O-])c1cc([N+](=O)[O-])c(Nc2ccc(Cl)cc2)c([N+](=O)[O-])c1", "inhibition": "inactive: -76.8%"}
{"smiles": "CP(=O)(Nc1ccccc1F)Oc1ccccc1", "note": "(configuration not stated)", "inhibition": "inactive: -1.48%"}
{"smiles": "CC(C)c1ccc(OP(C)(=O)Nc2ccc(SC(F)(F)F)cc2)cc1", "note": "(configuration not stated)", "inhibition": "inactive: -1.62%"}
{"smiles": "Cc1c(NP(C)(=O)Oc2ccc(C(C)C)cc2)c(=O)n(-c2ccccc2)n1C", "note": "(configuration not stated)", "inhibition": "inactive: -3.04%"}
{"smiles": "O=[N+]([O-])c1cc([N+](=O)[O-])c(Nc2ccccn2)c([N+](=O)[O-])c1", "inhibition": "inactive: -45.2%"}
